The test concerns the target T1, human c-KIT (Homo sapiens, UniProt P10721).
T1 construct: expressed in transfected cells; host or cells: Ba/F3 (murine IL3-dependent pro-B cell line)
Briefly: c-KIT cellular assay: Ba/F3 proliferation with SCF, without IL3. Type of test: cell-based. The settings on record: no IL3, 48 h. On the procedure:
The generation of Ba/F3 cells expressing wild-type human c-KIT has been previously described by us[55],[56]. For the assay of Ba/F3 cell proliferation, plates were seeded with a total of 10,000 cells per well. Cells were supplemented, or not, with either 0.1% IL3 or 250 ng/ml murine SCF. IL3 was obtained from conditioned medium from X63-omIL-3 cells (obtained from Fritz Melchers laboratory (Berlin, Germany)) and murine SCF, which activates c-KIT, was purified from the conditioned medium of SCF-producing CHO cells. Cells were supplemented with compounds at varying concentrations (final 0.1% DMSO). […] The amount of reduced dye formed by metabolically active cells was quantified by its fluorescence measured at 560 nm (excitation) and 590 nm (emission) in a microplate reader (FLUOstar Omega, BMG Labtech). A blank well without cells was used as a background control. Each experiment was performed at least three times (with technical triplicates) and data are presented as the mean ± SD.

Sequences of proteins named here, by UniProt entry; tags and fusion partners are left off. Residues count along the entry.
UniProt P10721, 26-976: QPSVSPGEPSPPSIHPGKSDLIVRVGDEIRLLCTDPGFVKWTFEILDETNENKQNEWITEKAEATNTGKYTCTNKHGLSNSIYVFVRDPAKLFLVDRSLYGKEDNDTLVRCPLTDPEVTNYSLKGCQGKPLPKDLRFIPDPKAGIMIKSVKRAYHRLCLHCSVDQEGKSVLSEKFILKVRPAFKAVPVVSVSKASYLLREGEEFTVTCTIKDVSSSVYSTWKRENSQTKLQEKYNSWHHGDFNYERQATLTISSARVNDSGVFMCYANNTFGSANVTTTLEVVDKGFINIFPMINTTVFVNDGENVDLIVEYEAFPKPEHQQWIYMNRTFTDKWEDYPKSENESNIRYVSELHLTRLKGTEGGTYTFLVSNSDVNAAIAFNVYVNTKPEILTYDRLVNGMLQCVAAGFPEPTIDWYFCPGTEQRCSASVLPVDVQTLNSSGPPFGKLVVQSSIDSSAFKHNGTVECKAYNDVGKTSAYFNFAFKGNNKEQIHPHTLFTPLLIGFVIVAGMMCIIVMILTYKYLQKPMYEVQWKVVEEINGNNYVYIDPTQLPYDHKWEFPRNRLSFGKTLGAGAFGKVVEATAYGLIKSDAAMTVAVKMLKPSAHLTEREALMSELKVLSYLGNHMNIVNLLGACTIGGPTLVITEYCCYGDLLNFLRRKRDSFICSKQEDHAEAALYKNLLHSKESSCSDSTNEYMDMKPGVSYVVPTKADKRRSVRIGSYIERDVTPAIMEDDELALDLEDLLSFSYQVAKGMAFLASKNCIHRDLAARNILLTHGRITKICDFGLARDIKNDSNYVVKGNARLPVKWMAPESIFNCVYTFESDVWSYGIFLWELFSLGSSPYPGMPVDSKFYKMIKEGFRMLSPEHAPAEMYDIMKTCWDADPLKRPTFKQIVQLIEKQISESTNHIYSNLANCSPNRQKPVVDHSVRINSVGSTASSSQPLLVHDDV

Consider 1 molecule from paper PMC10227015, “From a drug repositioning to a structure-based drug design approach to tackle acute lymphoblastic leukemia” (Nature Communications, 2023).

On to `Cc1ccc(NC(=O)c2ccc(CN3CCN(C)CC3)cc2)cc1Nc1nc(-c2cccnc2)cs1` [Masitinib, masitinib, reference compound], for which the “Cell proliferation of the IL-3 dependent Ba/F3 cell line Mean (% prolif)” value by setting is: (3.7 nM) 92.1%; (11 nM) 85.8%; (33 nM) 67.2%; (99 nM) 42.4%; (296 nM) 11.3%; (889 nM) 2.8%. Further, the “Cell proliferation of the IL-3 dependent Ba/F3 cell line Mean (% prolif)” value came out at 1.3% (2667 nM), 0.8% (8000 nM) and 0.667% (24000 nM).
